Activity calls are given as the source filed them.
Columns and labels:
[1] = target: T1, Bile acid receptor (Mus musculus) (UniProt Q60641); experiment: Activation of FXR in C57BL/6 mouse liver assessed as upregulation of OST-beta gene expression at 20 mg/kg, po administered for 5 days and measured after 1 hr post final dose by RT-PCR analysis; format: organism-based; conditions: filed as activator, time 5.0 day
T1 sequence (whole entry): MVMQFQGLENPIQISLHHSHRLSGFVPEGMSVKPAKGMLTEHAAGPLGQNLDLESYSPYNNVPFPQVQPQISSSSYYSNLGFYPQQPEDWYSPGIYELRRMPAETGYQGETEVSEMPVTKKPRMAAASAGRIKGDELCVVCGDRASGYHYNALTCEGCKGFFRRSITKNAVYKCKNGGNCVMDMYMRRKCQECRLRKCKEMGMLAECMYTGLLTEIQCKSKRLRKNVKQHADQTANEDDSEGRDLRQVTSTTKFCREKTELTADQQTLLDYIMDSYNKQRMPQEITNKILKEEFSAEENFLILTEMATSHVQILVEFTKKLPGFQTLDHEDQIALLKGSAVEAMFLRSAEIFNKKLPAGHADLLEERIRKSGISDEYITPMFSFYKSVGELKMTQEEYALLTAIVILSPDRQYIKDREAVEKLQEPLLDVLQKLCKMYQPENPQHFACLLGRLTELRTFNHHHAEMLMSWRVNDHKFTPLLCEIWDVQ

[2] = target: T1, Bile acid receptor (Mus musculus); experiment: In vivo activation of FXR pathway in western diet and CCl4-induced nonalcoholic steatohepatitis C57BL/6 mouse model assessed as upregulation of BSEP gene expression in liver at 20 mg/kg, po administered for 12 weeks starting from week 8 and change in dose for every 5 days by RT-PCR analysis; format: functional, organism-based; conditions: time 4.0 weeks
[3] = target: T1, Bile acid receptor (Mus musculus); experiment: In vivo activation of FXR pathway in western diet and CCl4-induced nonalcoholic steatohepatitis C57BL/6 mouse model assessed as upregulation of SHP gene expression in liver at 20 mg/kg, po administered for 12 weeks starting from week 8 and change in dose for every 5 days by RT-PCR analysis; format: functional, organism-based; conditions: time 4.0 weeks
[4] = target: T1, Bile acid receptor (Mus musculus); experiment: Activation of FXR in C57BL/6 mouse liver assessed as upregulation of SHP gene expression at 20 mg/kg, po administered for 5 days and measured after 1 hr post final dose by RT-PCR analysis; format: organism-based; conditions: filed as activator, time 5.0 day
[5] = target: T1, Bile acid receptor (Mus musculus); experiment: Activation of FXR in C57BL/6 mouse liver assessed as upregulation of BSEP gene expression at 20 mg/kg, po administered for 5 days and measured after 1 hr post final dose by RT-PCR analysis; format: organism-based; conditions: filed as activator, time 5.0 day
[6] = target: T1, Bile acid receptor (Mus musculus); experiment: In vivo activation of FXR pathway in western diet and CCl4-induced nonalcoholic steatohepatitis C57BL/6 mouse model assessed as upregulation of OST-beta gene expression in liver at 20 mg/kg, po administered for 12 weeks starting from week 8 and change in dose for every 5 days by RT-PCR analysis; format: functional, organism-based; conditions: time 4.0 weeks
[7] = target: T1, Bile acid receptor (Mus musculus); experiment: In vivo activation of FXR pathway in western diet and CCl4-induced nonalcoholic steatohepatitis C57BL/6 mouse model assessed as downregulation of CYP7A1 level in liver at 20 mg/kg, po administered for 12 weeks starting from week 8 and change in dose for every 5 days; format: functional, organism-based; conditions: time 4.0 weeks

Measured: Activity

O=C(O)Cc1ccc(-c2ccc(OCc3c(-c4c(Cl)cccc4Cl)noc3C3CC3)cc2)cc1
active: all assays above
